# From ChEMBL document CHEMBL3611982, “Lowering the pKa of a bisimidazoline lead with halogen atoms results in improved activity and selectivity against Trypanosoma brucei in vitro” (Eur J Med Chem, 2015)
# Test system: HEK-293T
# Experiment: Cytotoxicity against HEK293T cells after 30 hrs by Alamar Blue assay
# Type: cell-based
# Conditions: human
smiles,measurement,value
O=[As]c1ccccc1 (stereo unspecified),CC50,320 nM
